By UniProt entry, the sequences of proteins in these tests, tags left out.
UniProt P14416, whole entry: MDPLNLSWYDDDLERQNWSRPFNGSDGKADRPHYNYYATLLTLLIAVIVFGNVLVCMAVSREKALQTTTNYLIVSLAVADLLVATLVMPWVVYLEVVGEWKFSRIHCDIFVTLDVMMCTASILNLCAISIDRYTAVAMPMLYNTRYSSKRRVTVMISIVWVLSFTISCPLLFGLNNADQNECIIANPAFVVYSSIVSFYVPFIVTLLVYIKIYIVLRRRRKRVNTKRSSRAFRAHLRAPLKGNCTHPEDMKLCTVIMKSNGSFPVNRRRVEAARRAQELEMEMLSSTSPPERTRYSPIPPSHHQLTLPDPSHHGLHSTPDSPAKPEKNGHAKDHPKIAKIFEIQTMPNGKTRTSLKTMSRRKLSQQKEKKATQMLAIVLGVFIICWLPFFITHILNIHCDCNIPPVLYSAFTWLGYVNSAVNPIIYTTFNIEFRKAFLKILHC

According to ChEMBL document CHEMBL1159064 (J Med Chem, 2010):

Target: D(2) dopamine receptor (Homo sapiens, UniProt P14416)
Experiment: Displacement of [3H]spiperone from dopamine D2 receptor expressed in HEK293 cells by liquid scintillation counting
Type: cell-based

Work on `CCCN1CCc2cccc3c2[C@H]1Cc1cccc(O)c1-3` yielded a Ki of 114 nM.
